# Results: PubChem BioAssay (EPA / NIEHS)
# By UniProt entry, the sequences of proteins in these tests, tags left out.
# UniProt P17676, whole entry: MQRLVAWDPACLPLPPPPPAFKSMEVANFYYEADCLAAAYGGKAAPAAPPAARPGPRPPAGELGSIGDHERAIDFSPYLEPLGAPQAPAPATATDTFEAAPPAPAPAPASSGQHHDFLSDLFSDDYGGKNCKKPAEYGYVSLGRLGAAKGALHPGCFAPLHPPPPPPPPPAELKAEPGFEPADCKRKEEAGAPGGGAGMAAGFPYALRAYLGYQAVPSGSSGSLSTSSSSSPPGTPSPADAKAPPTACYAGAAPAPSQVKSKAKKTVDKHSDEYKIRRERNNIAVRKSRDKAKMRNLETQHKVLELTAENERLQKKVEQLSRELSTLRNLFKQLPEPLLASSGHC
# UniProt P35869, whole entry: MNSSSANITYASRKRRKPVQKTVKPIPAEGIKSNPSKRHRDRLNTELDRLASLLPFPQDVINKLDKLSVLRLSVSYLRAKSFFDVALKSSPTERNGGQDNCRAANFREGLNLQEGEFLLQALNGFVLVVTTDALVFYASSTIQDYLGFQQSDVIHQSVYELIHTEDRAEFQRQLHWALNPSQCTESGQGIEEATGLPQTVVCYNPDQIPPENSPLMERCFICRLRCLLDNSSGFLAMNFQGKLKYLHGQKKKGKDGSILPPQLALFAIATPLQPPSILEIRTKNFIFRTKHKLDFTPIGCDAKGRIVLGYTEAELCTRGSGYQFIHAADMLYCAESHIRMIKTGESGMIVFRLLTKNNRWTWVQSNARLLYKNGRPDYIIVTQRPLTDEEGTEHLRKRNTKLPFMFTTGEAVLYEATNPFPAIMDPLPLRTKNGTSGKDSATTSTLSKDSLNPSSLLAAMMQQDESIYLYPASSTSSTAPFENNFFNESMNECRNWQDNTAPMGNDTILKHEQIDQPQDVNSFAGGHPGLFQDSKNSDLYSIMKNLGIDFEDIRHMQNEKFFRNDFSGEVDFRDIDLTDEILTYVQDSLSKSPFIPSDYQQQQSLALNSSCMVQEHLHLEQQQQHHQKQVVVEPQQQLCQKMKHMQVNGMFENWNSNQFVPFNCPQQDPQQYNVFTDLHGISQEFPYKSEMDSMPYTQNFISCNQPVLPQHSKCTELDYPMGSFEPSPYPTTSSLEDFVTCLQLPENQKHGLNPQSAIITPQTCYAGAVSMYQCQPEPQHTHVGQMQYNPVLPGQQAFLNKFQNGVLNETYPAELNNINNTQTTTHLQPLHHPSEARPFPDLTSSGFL
# UniProt P10276, whole entry: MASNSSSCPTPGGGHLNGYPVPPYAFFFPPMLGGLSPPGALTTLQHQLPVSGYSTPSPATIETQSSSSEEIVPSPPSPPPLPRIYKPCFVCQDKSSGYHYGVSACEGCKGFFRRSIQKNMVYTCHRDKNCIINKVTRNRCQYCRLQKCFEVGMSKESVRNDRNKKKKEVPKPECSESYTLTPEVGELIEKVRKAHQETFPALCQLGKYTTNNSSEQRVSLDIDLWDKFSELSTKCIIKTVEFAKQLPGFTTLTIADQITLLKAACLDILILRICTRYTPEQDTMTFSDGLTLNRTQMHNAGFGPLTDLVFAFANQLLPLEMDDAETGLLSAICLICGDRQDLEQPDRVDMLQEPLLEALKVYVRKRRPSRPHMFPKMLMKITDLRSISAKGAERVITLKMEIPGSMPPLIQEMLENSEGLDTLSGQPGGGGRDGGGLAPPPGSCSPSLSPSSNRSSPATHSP
# Only a part is listed here, and it is no random draw. Active and inactive are the calls of the source. Rule for the calls: active = hit-call score of the fitted dose curve at least 0.9, where 1 is the maximum; inactive = score below 0.9.
# Experiments:
# [1] = ATG_CRE_CIS: Attagene CIS-FACTORIAL HepG2 Assay for human cAMP Responsive Element (CRE) binding protein 3 (AID 2282926); details: HepG2 CRE cis-reporter, Attagene multiplexed mRNA; actives raise or lower the signal
# Summary of the method: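 Induced reporter mRNA from a CRE cis element, measured in HepG2 among many multiplexed units at 24 h. Detection used RT-PCR plus capillary electrophoresis of fluorescent fragments; DMSO served as negative control.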
# [2] = biological target: CCAAT/enhancer-binding protein beta (Homo sapiens) (UniProt P17676); test: ATG_C_EBP_CIS: Attagene CIS-FACTORIAL HepG2 Assay for human CCAAT/Enhancer Binding Protein (C/EBP) beta (AID 2282927); details: HepG2 Attagene cis-factorial transcription factor reporter; actives raise or lower the signal
# Summary of the method: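 Endogenous transcription factor activity in human liver HepG2 cells is inferred from induction of a CEBPB-linked reporter mRNA. Exposure lasts 24 h; activity is fitted in both directions relative to DMSO.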
# [3] = ATG_CMV_CIS: Attagene CIS-FACTORIAL HepG2 Assay for human CMV (Internal Marker) (AID 2282928); details: HepG2 CMV promoter reporter, transcription factor profiling; actives raise or lower the signal;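 note: endpoint acts as a background internal control marker rather than a target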
# Summary of the method: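 Readout: fluorescent reporter cDNA fragments separated by capillary electrophoresis after RT-PCR and HpaI cut. Cells: HepG2 carrying transfected cis-promoter reporter constructs, dosed 24 h. Endpoint serves as background internal-marker control, fit bidirectionally versus DMSO.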
# [4] = ATG_DR4_LXR_CIS: Attagene CIS-FACTORIAL HepG2 Assay for human Liver X Receptor (LXR), DR4 submotif (AID 2282929); details: HepG2 Attagene DR4 cis-reporter, mRNA transcription; actives raise or lower the signal
# Summary of the method: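 Measures endogenous transcription factor activity via a DR4-driven reporter transcript in human HepG2 cells. Compounds incubated 24 h; mRNA quantified by RT-PCR and capillary electrophoresis, analysed as gain or loss of signal versus DMSO.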
# [5] = biological target: Aryl hydrocarbon receptor (Homo sapiens) (UniProt P35869); test: ATG_Ahr_CIS: Attagene CIS-FACTORIAL HepG2 Assay for human Aryl Hydrocarbon Receptor (Ahr) (AID 2282930); details: HepG2 AhR cis-factorial reporter transcription; actives raise or lower the signal
# Summary of the method: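 Transient MRTU transfection of HepG2 → 24 h compound exposure → total RNA, oligo(dT) RT → PCR, 6-FAM extension, HpaI cut → CE fluorescence. DMSO = baseline; bidirectional curve fit.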
# [6] = ATG_AP_1_CIS: Attagene CIS-FACTORIAL HepG2 Assay for human Activator Protein 1 (AP-1) (AID 2282931); details: HepG2 Attagene cis-factorial AP-1 reporter mRNA; actives raise or lower the signal
# Summary of the method: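 Bidirectional concentration-response fitting against DMSO controls. Underlying signal: reporter mRNA from cis-promoter constructs in transiently transfected HepG2, measured after 24 h by RT-PCR and capillary electrophoresis.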
# [7] = ATG_AP_2_CIS: Attagene CIS-FACTORIAL HepG2 Assay for human Activator Protein 2 (AP-2) (AID 2282932); details: HepG2 AP-2 cis-reporter, Attagene transcription factor profiling; actives raise or lower the signal
# Summary of the method: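 Transiently transfected HepG2 cells are exposed to chemical for 24 h. Reporter transcripts are then measured as fluorescence following RT-PCR and capillary separation, and gain- or loss-of-signal is fitted relative to DMSO.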
# [8] = ATG_BRE_CIS: Attagene CIS-FACTORIAL HepG2 Assay for human Bone Morphogenetic Protein (BMP) Response Element (BRE) (AID 2282933); details: HepG2 BMP response element reporter, Attagene transcription factor profiling; actives raise or lower the signal
# Summary of the method: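 Transient MRTU transfection of human HepG2 liver cells; 24 h compound treatment; total RNA isolated, reverse-transcribed, PCR-amplified, 6-FAM labelled, HpaI-cut, capillary electrophoresis. DMSO = negative control/baseline, bidirectional fit.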
# [9] = biological target: Retinoic acid receptor alpha (Homo sapiens) (UniProt P10276); test: ATG_DR5_RAR_CIS: Attagene CIS-FACTORIAL HepG2 Assay for human Retinoic Acid Receptor Alpha (RARE), DR5 submotif (AID 2282934); details: HepG2 Attagene cis-factorial RARE DR5 reporter, mRNA; actives raise or lower the signal;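 for AC50: reporter responds to endogenous RAR alpha beta and gamma in HepG2 not RARA alone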
# [10] = APR_HepG2_CellLoss_72hr: Apredica 72-hour HepG2 Assay for Cell Loss (AID 2282915); details: high-content imaging
# [11] = APR_HepG2_P-H2AX_72hr: Apredica 72-hour HepG2 Assay for H2AX Phosphorylation (AID 2282916); details: imaging, actives raise or lower the signal;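 note: phospho-histone H2A.x immunostain intensity per cell marking DNA damage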
# Summary of the method: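 Readout: phospho-H2A.x immunofluorescence (FITC secondary) plus Hoechst nuclear stain, high-content imaging at 20x, six fields/well. HepG2, 72 hr compound exposure, 0.39–200 uM, final DMSO 0.5% v/v. Gain or loss fitted relative to DMSO baseline.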
# [12] = APR_HepG2_MitoMembPot_72hr: Apredica 72-hour HepG2 Assay for Mitochondrial Membrane Potential (AID 2282917); details: imaging, actives raise or lower the signal
# Summary of the method: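 Membrane potential read by MitoTracker Red CMXRos (250 nM, 30 min, pre-fixation) fluorescence imaging of HepG2 after 72 hr exposure. Ten concentrations, 0.39–200 uM, duplicate wells, 0.5% DMSO; fitted in both directions against DMSO baseline.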
# [13] = APR_HepG2_MitoticArrest_72hr: Apredica 72-hour HepG2 Assay for Mitotic Arrest (AID 2282918); details: high-content imaging, actives raise or lower the signal
# Summary of the method: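 HepG2 cells treated 72 h at 0.39–200 uM, 0.5% DMSO final; formaldehyde-fixed, stained with Hoechst 33342 and phospho-histone H3 antibody, imaged by high-content fluorescence; bidirectional fit versus DMSO.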
# [14] = APR_HepG2_MicrotubuleCSK_72hr: Apredica 72-hour HepG2 Assay for Microtubule CSK Stabilty (AID 2282919); details: HepG2 microtubule cytoskeleton, high-content imaging, actives raise or lower the signal
# Summary of the method: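 High-content imaging of alpha-tubulin staining in fixed HepG2 cells after 72 hr treatment with ten concentrations from 0.39 to 200 uM (0.5% DMSO). Fitting was bidirectional against DMSO; taxol served as positive control.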
# [15] = APR_HepG2_P-H2AX_24hr: Apredica 24-hour HepG2 Assay for H2AX Phosphorylation (AID 2282920); details: high-content imaging, actives raise or lower the signal
# Summary of the method: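 HepG2 cells dosed 24 h at 0.39–200 uM (10 points, duplicate, 0.5% DMSO final). Formaldehyde-fixed and permeabilized, then immunostained for phospho-H2A.x with Hoechst. Fluorescence quantified by high-content imaging, fitted bidirectionally versus DMSO.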
# [16] = APR_HepG2_StressKinase_72hr: Apredica 72-hour HepG2 Assay for Stress Kinase (AID 2282921); details: HepG2 stress kinase (phospho-c-Jun) imaging, actives raise or lower the signal
# Summary of the method: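 Phospho-c-Jun immunofluorescence measured by high-content imaging at 20x, six fields per well; bidirectional curve fitting against DMSO as baseline. Dosing: 0.39–200 uM, 72 h, 0.5% DMSO final.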
# [17] = APR_HepG2_StressKinase_24hr: Apredica 24-hour HepG2 Assay for Stress Kinase (AID 2282922); details: HepG2 stress kinase (phospho-c-Jun) imaging, actives raise or lower the signal
# Summary of the method: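 High-content imaging of phospho-c-Jun immunofluorescence in fixed, permeabilized HepG2 cells after 24 h dosing. Ten concentrations, 0.39 to 200 uM, run in duplicate at 0.5% v/v DMSO; gain or loss of signal versus DMSO.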
# [18] = APR_HepG2_p53Act_72hr: Apredica 72-hour HepG2 Assay for p53 Activation (AID 2282923); details: high-content imaging, actives raise or lower the signal;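 note: average cellular p53 protein immunofluorescence intensity in HepG2 cells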
# Summary of the method: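 Readout: p53 immunofluorescence quantified by automated high-content imaging at 20x, six fields per well, nuclei located via Hoechst. Dosing ran 72 hr over ten concentrations from 0.39 to 200 uM; bidirectional curve fitting against DMSO baseline.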
# [19] = APR_HepG2_MitoMass_72hr: Apredica 72-hour HepG2 Assay for Mitochondrial Mass (AID 2282924); details: high-content imaging, actives raise or lower the signal;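 note: MitoTracker Red CMXRos stain intensity per cell imaged as mitochondrial mass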
# Summary of the method: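 Readout is imaged MitoTracker Red (250 nM, 30 min, pre-fixation) signal, fitted bidirectionally against DMSO baseline. Human HepG2 liver cells received compound 0.39–200 uM in duplicate for 72 hr, final DMSO 0.5%.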
# [20] = APR_HepG2_NuclearSize_72hr: Apredica 72-hour HepG2 Assay for Nuclear Size (AID 2282925); details: high-content imaging, actives raise or lower the signal
# Summary of the method: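 Nuclear size was read by high-content imaging of Hoechst 33342 stain after formaldehyde fixation. Compounds ran 72 h on HepG2 at 0.39 to 200 uM, with final DMSO 0.5% v/v. Curves fitted both directions relative to DMSO control.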
structure (smiles),measurement,setting,value
CC(C)OP(OC(C)C)OC(C)C,outcome,[1],inactive
same,outcome,[2],inactive
same,outcome,[3],inactive
same,outcome,[4],inactive
same,outcome,[5],inactive
same,outcome,[6],inactive
same,outcome,[7],inactive
same,outcome,[8],inactive
same,outcome,[9],inactive
CCOP(=O)(Cl)Cl,outcome,[1],inactive
same,outcome,[2],inactive
same,outcome,[3],inactive
same,outcome,[4],inactive
same,outcome,[5],inactive
same,outcome,[6],inactive
same,outcome,[7],inactive
same,outcome,[8],inactive
ClCCNCCCl,outcome,[1],inactive
same,outcome,[2],inactive
same,outcome,[3],inactive
same,outcome,[4],inactive
same,outcome,[5],inactive
same,outcome,[6],inactive
same,outcome,[7],inactive
same,outcome,[8],inactive
same,outcome,[9],inactive
O=[N+]([O-])c1ccccc1[N+](=O)[O-],AC50,[10],active: 58.9 µM
same,AC50,[11],active: 65.6 µM
same,outcome,[12],inactive
same,AC50,[13],active: 59.8 µM
same,outcome,[14],inactive
same,AC50,[15],active: 56.8 µM
same,AC50,[16],active: 65.9 µM
same,outcome,[17],inactive
same,AC50,[18],active: 44.1 µM
same,outcome,[19],inactive
same,outcome,[20],inactive
same,outcome,[1],inactive
same,outcome,[2],inactive
same,AC50,[3],active: 60.1 µM
same,outcome,[4],inactive
same,outcome,[5],inactive
same,outcome,[7],inactive
same,outcome,[8],inactive
same,AC50,[9],active: 7.12 µM
ClCCOP(OCCCl)OCCCl,outcome,[1],inactive
same,outcome,[2],inactive
same,outcome,[3],inactive
same,outcome,[4],inactive
same,outcome,[5],inactive
same,outcome,[6],inactive
same,outcome,[7],inactive
same,outcome,[8],inactive
same,outcome,[9],inactive
